In general, IC50 refers to the concentration needed to halve the response being measured. A low value points to greater potency.

Amino acid sequences for entries named in this document (tags omitted). A change or cut given only in a name is not applied to a line headed by its entry.
UniProt P48730: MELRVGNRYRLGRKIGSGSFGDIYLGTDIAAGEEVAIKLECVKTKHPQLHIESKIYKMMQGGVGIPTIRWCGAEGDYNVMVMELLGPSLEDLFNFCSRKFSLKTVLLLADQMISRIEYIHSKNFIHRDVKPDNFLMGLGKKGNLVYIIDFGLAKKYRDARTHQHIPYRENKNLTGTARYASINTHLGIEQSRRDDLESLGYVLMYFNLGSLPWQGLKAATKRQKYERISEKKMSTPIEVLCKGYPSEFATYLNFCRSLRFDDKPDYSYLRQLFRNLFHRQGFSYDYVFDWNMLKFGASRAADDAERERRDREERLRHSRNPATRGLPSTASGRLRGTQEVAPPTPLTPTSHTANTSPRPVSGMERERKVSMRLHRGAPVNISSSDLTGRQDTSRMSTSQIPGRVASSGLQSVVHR
UniProt P49674: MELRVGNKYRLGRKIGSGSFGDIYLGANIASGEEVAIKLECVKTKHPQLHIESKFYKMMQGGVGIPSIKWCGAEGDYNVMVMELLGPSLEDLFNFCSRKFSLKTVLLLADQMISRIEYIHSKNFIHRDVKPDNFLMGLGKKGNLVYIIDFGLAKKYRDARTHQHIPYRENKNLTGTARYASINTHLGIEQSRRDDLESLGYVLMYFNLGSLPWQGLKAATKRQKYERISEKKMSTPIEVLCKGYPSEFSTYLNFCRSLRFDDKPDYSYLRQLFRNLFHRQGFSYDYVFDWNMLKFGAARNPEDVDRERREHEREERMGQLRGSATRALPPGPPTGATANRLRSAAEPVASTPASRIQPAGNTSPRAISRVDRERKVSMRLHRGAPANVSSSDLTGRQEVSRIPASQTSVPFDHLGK

Consider 23 compounds from patent US9556179B2 (BRISTOL-MYERS SQUIBB COMPANY, priority 2012, dated 2017).

Each structure is given as a SMILES string.

One assay concerns the target CK1δ (Homo sapiens (Human), UniProt P48730). The assay is described as follows: CK1δ kinase assay (Caliper LABCHIP electrophoretic separation of fluoresceinated peptide substrate and product). The class given is biochemical. The following applies: 200 pM enzyme, 50 μM ATP, 22 hours at room temperature. The protocol:
(§1) CK1ε and CK1δ Kinase Assays
(§2) The kinase assay was performed in V-bottom 384-well plates. […] The reaction was incubated at room temperature for 22 hours and terminated by adding 45 μl of 35 mM EDTA to each sample. The reaction mixture was analyzed on the Caliper LABCHIP®3000 (Caliper, Hopkinton, Mass.) by electrophoretic separation of the unphosphorylated substrate and phosphorylated product. […] Compounds were dissolved at 10 mM in dimethylsulfoxide (DMSO) and evaluated at eleven concentrations. IC50 values were derived by non-linear regression analysis.

The target of another assay is CK1ε (Homo sapiens (Human), UniProt P49674). Description: CK1ε kinase assay (Caliper LABCHIP electrophoretic separation of fluoresceinated peptide substrate and product). The class given is biochemical. The conditions noted are these: 200 pM enzyme, 50 μM ATP, 22 hours at room temperature. The protocol:
as §1, §2

`O=C(Nc1cn2nc(-c3c(-c4ccc(F)cc4)ncn3C3CCN(C(=O)OCCC(F)(F)F)CC3)ccc2n1)c1ccnc(F)c1` [Compound 83, 3,3,3-trifluoropropyl 4-(5-(2-(2-fluoroisonicotinamido)imidazo[1,2-b]pyridazin-6-yl)-4-(4-fluorophenyl)-1H-imidazol-1-yl)piperidine-1-carboxylate] came in with a concentration for half-maximal inhibition (IC50) against CK1δ of 0.142 nM.

Turning to `Cc1nc(-c2ccc(F)cc2)c(-c2ccc3nc(NC(=O)c4nc[nH]n4)cn3n2)n1C` [Compound 368, N-(6-(4-(4-fluorophenyl)-1,2-dimethyl-1H-imidazol-5-yl)imidazo[1,2-b]pyridazin-2-yl)-1H-1,2,4-triazole-3-carboxamide], at CK1δ, half-maximal inhibition (IC50) was put at 4.86 nM. On to `O=C(Nc1cn2nc(-c3c(-c4ccc(F)cc4)ncn3CC(O)CO)ccc2n1)c1ccnc(F)c1` (centres unmarked) [Compound 235, N-(6-(1-(2,3-dihydroxypropyl)-4-(4-fluorophenyl)-1H-imidazol-5-yl)imidazo[1,2-b]pyridazin-2-yl)-2-fluoroisonicotinamide, dimethyl-formamide], for which the IC50 on CK1δ came to 0.295 nM. Same read-out and setting: the figure for `O=C(Nc1cn2nc(-c3c(-c4ccc(F)cc4)ncn3C3COC3)ccc2n1)c1ccnc(F)c1` [Compound 239, 2-fluoro-N-(6-(4-(4-fluorophenyl)-1-(oxetan-3-yl)-1H-imidazol-5-yl)imidazo[1,2-b]pyridazin-2-yl)iso-nicotinamide] is 0.547 nM. Still for that read-out and setting: the figure for `O=C(Nc1cn2nc(-c3c(-c4ccc(F)cc4)ncn3C3CCN(CCO)CC3)ccc2n1)c1ccnc2ccccc12` [Compound 111, N-(6-(4-(4-fluorophenyl)-1-(1-(2-hydroxyethyl)piperidin-4-yl)-1H-imidazol-5-yl)imidazo[1,2-b]pyridazin-2-yl)quinoline-4-carboxamide] is 0.233 nM; for `O=C(Nc1cn2nc(-c3c(-c4ccc(F)cc4)ncn3C3CCNCC3)ccc2n1)c1ccnc2ccccc12` [Compound 109, N-(6-(4-(4-fluorophenyl)-1-(piperidin-4-yl)-1H-imidazol-5-yl)imidazo[1,2-b]pyridazin-2-yl)quinoline-4-carboxamide] it is 0.557 nM. For the compound `Cc1nnsc1C(=O)Nc1cn2nc(-c3c(-c4ccc(F)cc4)nc(C)n3C)ccc2n1` [Compound 351, N-(6-(4-(4-fluorophenyl)-1,2-dimethyl-1H-imidazol-5-yl)imidazo[1,2-b]pyridazin-2-yl)-4-methyl-1,2,3-thiadiazole-5-carboxamide], at CK1δ, the IC50 came out at 0.534 nM. On the same count and under the same terms, the figure for `Cc1nocc1C(=O)N1CCC(n2cnc(-c3ccc(F)cc3)c2-c2ccc3nc(NC(=O)c4ccnc(F)c4)cn3n2)CC1` [Compound 63, 2-fluoro-N-(6-(4-(4-fluorophenyl)-1-(1-(3-methylisoxazole-4-carbonyl)piperidm-4-yl)-1H-imidazol-5-yl)imidazo[1,2-6]pyridazin-2-yl)isonicotinamide] is 0.239 nM; for `O=C(Nc1cn2nc(-c3c(-c4ccc(F)cc4)ncn3C3CCN(Cc4ccc(O)nc4)CC3)ccc2n1)c1ccnc(F)c1` [Compound 30, 2-fluoro-N-(6-(4-(4-fluorophenyl)-1-(1-((6-hydroxypyridin-3-yl)methyl)piperidin-4-yl)-1H-imidazol-5-yl)imidazo[1,2-b]pyridazin-2-yl)isonicotinamide] it is 0.295 nM. The same measure, in the same setting: the figure for `Cc1nc(-c2ccc(F)cc2)c(-c2ccc3nc(NC(=O)c4ccncc4)cn3n2)n1C` [Compound 301, N-(6-(4-(4-Fluorophenyl)-1,2-dimethyl-1H-imidazol-5-yl)imidazo[1,2-b]pyridazin-2-yl)isonicotinamide] is 0.413 nM; for `Cc1cc(C(=O)Nc2cn3nc(-c4c(-c5ccc(F)cc5)nc(C)n4C)ccc3n2)n[nH]1` [Compound 401, N-(6-(4-(4-fluorophenyl)-1,2-dimethyl-1H-imidazol-5-yl)imidazo[1,2-b]pyridazin-2-yl)-5-methyl-1H-pyrazole-3-carboxamide] it is 13 nM.

Regarding `O=C(Nc1cn2nc(-c3c(-c4ccc(F)cc4)nc4ccccn34)ccc2n1)C1CC1` [Compound 185, N-(6-(2-(4-fluorophenyl)imidazo[1,2-a]pyridin-3-yl)imidazo[1,2-b]pyridazin-2-yl)cyclopropanecarboxamide], at CK1ε, the IC50 is 10.2 nM. `O=C(Nc1cn2nc(-c3c(-c4ccc(F)cc4)ncn3C3CCN(C(=O)c4cocn4)CC3)ccc2n1)c1ccnc(F)c1` [Compound 43, 2-fluoro-N-(6-(4-(4-fluorophenyl)-1-(1-(oxazole-4-carbonyl)piperidin-4-yl)-1H-imidazol-5-yl)imidazo[1,2-6]pyridazin-2-yl)isonicotinamide]: inhibition against CK1δ was half-maximal at 0.234 nM (IC50). The same measure, in the same setting: the figure for `Cc1nc(-c2ccc(F)cc2)c(-c2ccc3nc(NC(=O)c4ccnc(N)c4)cn3n2)n1C` [Compound 323, 2-amino-N-(6-(4-(4-fluoro-phenyl)-1,2-dimethyl-1H-imidazol-5-yl)imidazo[1,2-b]pyridazin-2-yl)isonicotin-amide] is 0.401 nM. Compound `CC(C)(C)OCCn1cnc(-c2ccc(F)cc2)c1-c1ccc2nc(NC(=O)c3ccnc(F)c3)cn2n1` [Compound 260, N-(6-(1-(2-tert-butoxyethyl)-4-(4-fluorophenyl)-1H-imidazol-5-yl)imidazo[1,2-b]pyridazin-2-yl)-2-fluoroisonicotinamide] came in with an IC50 at CK1δ of 0.403 nM. The same measure, in the same setting: the figure for `O=C(Nc1cn2nc(-c3c(-c4ccc(F)cc4)ncn3C3CCN(C(=O)CC(F)(F)F)CC3)ccc2n1)c1cc(F)nc(F)c1` [Compound 94, 2,6-difluoro-N-(6-(4-(4-fluorophenyl)-1-(1-(3,3,3-trifluoropropanoyl)piperidin-4-yl)-1H-imidazol-5-yl)imidazo[1,2-b]pyridazin-2-yl)isonicotinamide] is 0.338 nM. Still for that read-out and setting: the figure for `Cc1nc(-c2ccc(F)cc2)c(-c2ccc3nc(NC(=O)c4ccno4)cn3n2)n1C` [Compound 387, N-(6-(4-(4-fluorophenyl)-1,2-dimethyl-1H-imidazol-5-yl)imidazo[1,2-b]pyridazin-2-yl)isoxazole-5-carboxamide] is 6.78 nM. Compound `O=C(Nc1cn2nc(-c3c(-c4ccc(F)cc4)ncn3C3CCN(C(=O)C4CCC4)CC3)ccc2n1)c1ccnc(F)c1` [Compound 68, N-(6-(1-(1-(cyclobutanecarbonyl)piperidin-4-yl)-4-(4-fluorophenyl)-1H-imidazol-5-yl)imidazo[1,2-b]pyridazin-2-yl)-2-fluoroisonicotinamide] registered a half-inhibitory concentration (IC50) against CK1ε of 0.811 nM. Turning to `O=C(Nc1cn2nc(-c3c(-c4ccc(F)cc4)ncn3C3CCNCC3)ccc2n1)c1ccncc1` [Compound 1, N-(6-(4-(4-fluorophenyl)-1-(piperidin-4-yl)-1H-imidazol-5-yl)imidazo[1,2-b]pyridazin-2-yl)isonicotinamide], the IC50 against CK1ε was found to be 0.943 nM.

On CK1ε, `O=C(Nc1cn2nc(-c3c(-c4ccc(F)cc4)ncn3C3CCN(C(=O)C4CC(F)(F)C4)CC3)ccc2n1)c1ccnc(F)c1` [Compound 67, N-(6-(1-(1-(3,3-difluorocyclobutanecarbonyl)piperidin-4-yl)-4-(4-fluorophenyl)-1H-imidazol-5-yl)imidazo[1,2-b]pyridazin-2-yl)-2-fluoroisonicotinamide] displayed an IC50 of 0.233 nM.

Consider `O=C(Nc1cn2nc(-c3c(-c4ccc(F)cc4)ncn3C3CCN(Cc4ncco4)CC3)ccc2n1)c1ccnc(F)c1` [Compound 29, 2-fluoro-N-(6-(4-(4-fluorophenyl)-1-(1-(oxazol-2-ylmethyl)piperidin-4-yl)-1H-imidazol-5-yl)imidazo[1,2-6]pyridazin-2-yl)isonicotinamide], for which the half-inhibitory concentration (IC50) against CK1ε was determined as 0.676 nM. `Cc1nc(-c2ccc(F)cc2)c(-c2ccc3nc(NC(=O)c4cncnc4)cn3n2)n1C` [Compound 350, N-(6-(4-(4-fluorophenyl)-1,2-dimethyl-1H-imidazol-5-yl)imidazo[1,2-b]pyridazin-2-yl)-5-pyrimidinecarboxamide] returned an IC50 at CK1δ of 0.343 nM. The same measure, in the same setting: the figure for `Cc1nc(-c2ccc(F)cc2)c(-c2ccc3nc(NC(=O)c4cncn4C)cn3n2)n1C` [Compound 360, N-(6-(4-(4-fluorophenyl)-1,2-dimethyl-1H-imidazol-5-yl)imidazo[1,2-b]pyridazin-2-yl)-1-methyl-1H-imidazole-5-carboxamide] is 0.52 nM.
